By UniProt entry, the sequences of proteins in these tests, tags left out.
UniProt P06239, whole entry: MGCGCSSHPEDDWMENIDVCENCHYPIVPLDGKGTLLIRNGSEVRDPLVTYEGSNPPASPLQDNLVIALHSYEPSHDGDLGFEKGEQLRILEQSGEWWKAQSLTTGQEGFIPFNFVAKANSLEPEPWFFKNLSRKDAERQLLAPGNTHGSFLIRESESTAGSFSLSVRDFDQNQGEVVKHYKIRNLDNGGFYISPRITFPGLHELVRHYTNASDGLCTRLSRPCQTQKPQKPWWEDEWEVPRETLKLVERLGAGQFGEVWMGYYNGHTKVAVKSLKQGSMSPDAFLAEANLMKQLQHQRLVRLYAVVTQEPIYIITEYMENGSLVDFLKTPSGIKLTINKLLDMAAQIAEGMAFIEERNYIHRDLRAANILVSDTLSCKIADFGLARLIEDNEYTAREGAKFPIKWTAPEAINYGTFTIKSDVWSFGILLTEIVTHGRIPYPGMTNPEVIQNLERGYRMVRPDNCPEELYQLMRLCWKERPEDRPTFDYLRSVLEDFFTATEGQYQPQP

What follows are compounds tested against human Lck kinase (UniProt P06239) (assay: Lck inhibition assay (A: radioactivity-based or B: spectrophotometric coupled-enzyme assay)). Details: read-out: Lck Activity (Ki rating).
Protocol: The compounds were evaluated as inhibitors of human Lck kinase using either a radioactivity-based assay or spectrophotometric assay.
The compounds were assayed as inhibitors of full length bovine thymus Lck kinase (from Upstate Biotechnology, cat. no. 14-106) expressed and purified from baculo viral cells. Lck kinase activity was monitored by following the incorporation of ^33p from ATP into the tyrosine of a random poly Glu-Tyr polymer substrate of composition, Glu:Tyr=4:1 (Sigma, cat. no. P-0275). The following were the final concentrations of the assay components: 0.025 M HEPES, pH 7.6, 10 mM MgCl2, 2 mM DTT, 0.25 mg/ml BSA, 10 μM ATP (1-2 μCi ^33P-ATP per reaction), 5 mg/ml poly Glu-Tyr, and 1-2 units of recombinant human […] kinase. In a typical assay, all the reaction components with the exception of ATP were pre-mixed and aliquoted into assay plate wells. Inhibitors dissolved in DMSO were added to the wells to give a final DMSO concentration of 2.5%. The assay plate was incubated at 30 C. for 10 min before initiating the reaction with ^33P-ATP. After 20 min of reaction, the reactions were quenched with 150 μl of 10% trichloroacetic acid (TCA) containing 20 mM Na3PO4. The quenched samples were then transferred to a 96-well filter plate (Whatman, UNI-Filter GF/F Glass Fiber Filter, cat no. 7700-3310) installed on a filter plate vacuum manifold. Filter plates were washed four times with 10% TCA containing 20 mM Na3PO4 and then 4 times with methanol. 200 μl of scintillation fluid was then added to each well. The plates were sealed and the amount of radioactivity associated with the filters was quantified on a TopCount scintillation counter. The radioactivity incorporated was plotted as a function of the inhibitor concentration. The data was fitted to a competitive inhibition kinetics model to get the Ki for the compound.
The ADP produced from ATP by the human recombinant Lck kinase-catalyzed phosphorylation of poly Glu-Tyr substrate was quanitified using a coupled enzyme assay (Fox et al (1998) Protein Sci 7, 2249). In this assay one molecule of NADH is oxidised to NAD for every molecule of ADP produced in the kinase reaction. The disappearance of NADH can be conveniently followed at 340 nm.
The following were the final concentrations of the assay components: 0.025 M HEPES, pH 7.6, 10 mM MgCl2, 2 mM DTT, 5 mg/ml poly Glu-Tyr, and 50 nM of recombinant human Lck kinase. Final concentrations of the components of the coupled enzyme system were 2.5 mM phosphoenolpyruvate, 200 μM NADH, 30 μg/ml pyruvate kinase and 10 μg/ml lactate dehydrogenase.
In a typical assay, all the reaction components with the exception of ATP were pre-mixed and aliquoted into assay plate wells. Inhibitors dissolved in DMSO were added to the wells to give a final DMSO concentration of 2.5%. The assay plate was incubated at 30° C. for 10 min before initiating the reaction with 150 μM ATP. The absorbance change at 340 nm with time, the rate of the reaction, was monitored on a molecular devices plate reader. The data of rate as a function of the inhibitor concentration was fitted to competitive inhibition kinetics model to get the Ki for the compound.
With `CSc1sc(-c2nc(Nc3ccccc3)ncc2C)c(-c2cccnc2)c1C#N` the Ki was 100 to 1000 nM.
Work on `CSc1sc(-c2nc(Nc3cccc(OCc4ccccc4)c3)ncc2C)c(-c2ccc(C)cc2)c1C#N` yielded a Ki of 100 to 1000 nM.
For `Cc1cnc(Nc2cccc(OCc3ccccc3)c2)nc1-c1sc(O)c(C#N)c1-c1ccccc1`, the Ki was under 100 nM.
For `CSc1sc(-c2ccnc(Nc3cccc(OCc4ccccc4)c3)n2)c(-c2cncc(-c3ccccc3)c2)c1C#N`, the Ki was over 1000 nM.
`CN(C)c1sc(-c2ccnc(Nc3cccc(N)c3)n2)c(-c2cccc(Oc3ccccc3)c2)c1C#N` showed a Ki of under 100 nM.
With `CSc1sc(-c2nc(Nc3cccc(OCc4ccccc4)c3)ncc2C)c(-c2cccc(-c3ccccc3)c2)c1C#N` the Ki was over 1000 nM.
Work on `CSc1sc(-c2ccnc(Nc3ccc(OCc4ccccc4)cc3)n2)c(-c2ccccc2)c1C#N` yielded a Ki of over 1000 nM.
Work on `CN(C)c1sc(-c2ccnc(Nc3cccc(OCc4ccccc4)c3)n2)c(-c2cncc(-c3ccccc3)c2)c1C#N` yielded a Ki of over 1000 nM.
`CSc1sc(-c2ccnc(Nc3cccc(O)c3)n2)c(-c2cccc(-c3ccccc3O)c2)c1C#N` gave a Ki of under 100 nM.
With `CSc1sc(-c2nc(Nc3cccc(O)c3)ncc2C)c(-c2ccco2)c1C#N` the Ki was under 100 nM.
Compound `CSc1sc(-c2ccnc(Nc3cccc(O)c3)n2)c(-c2cccc(Oc3ccccc3)c2)c1C#N` has a Ki of under 100 nM.
Compound `CCOc1sc(-c2ccnc(Nc3ccccc3)n2)c(-c2ccccc2)c1C#N` has a Ki of under 100 nM.
Compound `CSc1sc(-c2ccnc(Nc3cccc(OCc4ccccc4)c3)n2)c(C2CCCCC2)c1C#N` has a Ki of under 100 nM.
Work on `CCNc1sc(-c2ccnc(Nc3ccc(O)cc3)n2)c(-c2ccccc2)c1C#N` yielded a Ki of under 100 nM.
`CSc1sc(-c2ccnc(Nc3cccc(O)c3)n2)c(-c2cncc(-c3ccccc3)c2)c1C#N` showed a Ki of over 1000 nM.
For `COC(=O)c1cccc(Nc2ncc(C)c(-c3sc(SC)c(C#N)c3-c3cccnc3)n2)c1`, the Ki was under 100 nM.
Work on `CSc1sc(-c2nc(Nc3cccc([N+](=O)[O-])c3)ncc2C)c(-c2ccco2)c1C#N` yielded a Ki of under 100 nM.
`CN(C)c1sc(-c2ccnc(Nc3cccc(O)c3)n2)c(-c2cncc(-c3ccccc3)c2)c1C#N` showed a Ki of over 1000 nM.
`CCOC(=O)c1c(SC)sc(-c2ccnc(Nc3cccc(O)c3)n2)c1-c1ccccc1` was tested, and the Ki was 100 to 1000 nM.
With `CSc1sc(-c2nc(Nc3cccc(O)c3)ncc2C)c(-c2cccc(-c3ccccc3)c2)c1C#N` the Ki was under 100 nM.
`CSc1sc(-c2nc(Nc3ccc(Cl)nc3)ncc2C)c(-c2cccnc2)c1C#N` showed a Ki of over 1000 nM.
In the case of `CSc1sc(-c2nc(Nc3cccnc3)ncc2C)c(-c2ccc(C)cc2)c1C#N`, the Ki is reported as 100 to 1000 nM.
In the case of `CN(C)c1sc(-c2ccnc(Nc3cccc(OCc4ccccc4)c3)n2)c(-c2cncc(Br)c2)c1C#N`, the Ki is reported as under 100 nM.
`CSc1sc(-c2ccnc(Nc3cccc(OCc4ccccc4)c3)n2)c(-c2cccnc2)c1C#N` showed a Ki of over 1000 nM.
`CC1CCN(c2sc(-c3ccnc(Nc4ccccc4)n3)c(-c3cccc(Oc4ccccc4)c3)c2C#N)CC1` gave a Ki of under 100 nM.
For `CSc1sc(-c2ccnc(Nc3cccc(O)c3)n2)c(-c2cccc(OCc3ccccc3)c2)c1C#N`, the Ki was 100 to 1000 nM.
`CCNc1sc(-c2ccnc(Nc3cccc(O)c3)n2)c(-c2ccccc2)c1C#N` gave a Ki of under 100 nM.
With `CSc1sc(-c2ccnc(Nc3cccc([N+](=O)[O-])c3)n2)c(-c2cccc(O)c2)c1C#N` the Ki was under 100 nM.
With `CCOC(=O)c1ccc(Nc2nccc(-c3sc(SC)c(C#N)c3C3CCCCC3)n2)cc1` the Ki was 100 to 1000 nM.
`CCOc1sc(-c2nc(Nc3cccc(OCc4ccccc4)c3)ncc2C)c(-c2ccccc2)c1C#N` showed a Ki of under 100 nM.
`CSc1sc(-c2ccnc(Nc3cccc(N)c3)n2)c(-c2cccc(Oc3ccccc3)c2)c1C#N` gave a Ki of under 100 nM.
`CSc1sc(-c2nc(Nc3cccc(Br)c3)ncc2C)c(-c2cccnc2)c1C#N` showed a Ki of under 100 nM.
`N#Cc1c(NCCN2CCOCC2)sc(-c2ccnc(Nc3cccc(O)c3)n2)c1-c1ccccc1` showed a Ki of under 100 nM.
Compound `CCOC(=O)c1c(SC)sc(-c2ccnc(Nc3ccccc3)n2)c1-c1ccccc1` has a Ki of over 1000 nM.
With `CSc1sc(-c2ccnc(Nc3ccccc3)n2)c(-c2cccc(OCc3ccccc3)c2)c1C#N` the Ki was over 1000 nM.
With `CSc1sc(-c2ccnc(Nc3cccc(O)c3)n2)c(-c2cccnc2)c1C#N` the Ki was under 100 nM.
In the case of `COc1cc(Nc2ncc(C)c(-c3sc(SC)c(C#N)c3-c3cccnc3)n2)cc(OC)c1`, the Ki is reported as under 100 nM.
With `CSc1sc(-c2nc(NCc3ccccc3)ncc2C)c(-c2cccnc2)c1C#N` the Ki was over 1000 nM.
`CSc1sc(-c2nc(Nc3cccc(O)c3)ncc2C)c(-c2ccccc2)c1C#N` showed a Ki of under 100 nM.
`COc1cccc(Nc2ncc(C)c(-c3sc(SC)c(C#N)c3-c3cccnc3)n2)c1` gave a Ki of 100 to 1000 nM.
For `CSc1sc(-c2nc(Nc3cccc(O)c3)ncc2C)c(-c2ccccc2C(F)(F)F)c1C#N`, the Ki was under 100 nM.
For `Cc1cnc(Nc2ccccc2)nc1-c1sc(SCc2ccc(O)cc2)c(C#N)c1-c1cccc(Cl)c1` [Compound V-1, 4-(3-chloro-phenyl)-2-(4-hydroxy-benzylsulfanyl)-5-(5-methyl-2-phenylamino-pyrimidin-4-yl)-thiophene-3-carbonitrile], the Ki was under 100 nM.
`CSc1sc(-c2ccnc(Nc3cccc(N)c3)n2)c(-c2cccc(Br)c2)c1C#N` was tested, and the Ki was under 100 nM.
`Cc1ccc(-c2c(-c3ccnc(Nc4ccccc4)n3)sc(O)c2C#N)cc1` showed a Ki of under 100 nM.
For `CSc1sc(-c2nc(Nc3cccc(OCc4ccccc4)c3)ncc2C)c(-c2ccco2)c1C#N`, the Ki was under 100 nM.
`CSc1sc(-c2ccnc(Nc3cccc(OCc4ccccc4)c3)n2)c(-c2cncc(Br)c2)c1C#N` was tested, and the Ki was over 1000 nM.
`CN(C)c1sc(-c2ccnc(Nc3ccccc3)n2)c(-c2cccc(OCc3ccccc3)c2)c1C#N` was tested, and the Ki was over 1000 nM.
`CSc1sc(-c2ccnc(Nc3ccccc3)n2)c(C2CCCCC2)c1C#N` showed a Ki of under 100 nM.
`N#Cc1c(NCCN2CCOCC2)sc(-c2ccnc(Nc3cccc(S(N)(=O)=O)c3)n2)c1-c1ccccc1` showed a Ki of under 100 nM.
In the case of `CSc1sc(-c2nc(Nc3cccnc3)ncc2C)c(-c2ccco2)c1C#N`, the Ki is reported as under 100 nM.
`CSc1sc(-c2nc(Nc3cccc(O)c3)ncc2C)c(-c2ccc(C)cc2)c1C#N` showed a Ki of under 100 nM.
For `CSc1sc(-c2ccnc(Nc3cccc(S(N)(=O)=O)c3)n2)c(-c2cccnc2)c1C#N`, the Ki was under 100 nM.
`N#Cc1c(NCCN2CCOCC2)sc(-c2ccnc(Nc3ccc(O)cc3)n2)c1-c1ccccc1` gave a Ki of under 100 nM.
With `CN(C)c1sc(-c2ccnc(Nc3cccc([N+](=O)[O-])c3)n2)c(-c2cccc(OCc3ccccc3)c2)c1C#N` the Ki was over 1000 nM.
Work on `CSc1sc(-c2ccnc(Nc3cccc([N+](=O)[O-])c3)n2)c(-c2cccc(OCc3ccccc3)c2)c1C#N` yielded a Ki of over 1000 nM.
`CSc1sc(-c2ccnc(Nc3cccc(O)c3)n2)c(-c2cccc(O)c2)c1C#N` gave a Ki of under 100 nM.

— patent US6642227B2, “Inhibitors of c-Jun N-terminal kinases (JNK) and other protein kinases” (Vertex Pharmaceuticals Incorporated, priority 2001, dated 2003)
